In article PMC9354565 (The journal of physical chemistry. B, 2022):

Tests used:
ST2/IL33 binding [1] = target: T1, ST2/IL33 binding (Homo sapiens, UniProt Q01638); test: ST2/IL33 HTRF competitive inhibition assay, anti-Fc donor beads
T1 sequence (Q01638 19-328 isoform Q01638-2 limits assumed): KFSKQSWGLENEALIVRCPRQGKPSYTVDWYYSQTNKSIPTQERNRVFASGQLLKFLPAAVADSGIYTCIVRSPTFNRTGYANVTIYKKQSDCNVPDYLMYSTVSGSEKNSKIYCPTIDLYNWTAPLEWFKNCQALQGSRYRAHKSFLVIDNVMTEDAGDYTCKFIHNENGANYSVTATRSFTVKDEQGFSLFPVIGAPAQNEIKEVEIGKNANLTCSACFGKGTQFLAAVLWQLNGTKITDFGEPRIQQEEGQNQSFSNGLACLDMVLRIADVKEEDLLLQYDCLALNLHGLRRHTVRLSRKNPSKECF

ST2/IL33 binding [2] = target: T1, ST2/IL33 binding; test: ST2/IL33 HTRF competitive inhibition assay, anti-Histag donor beads; settings: for inhibition of ST2/IL33 binding (in words): anti-Histag donor beads, highest concentration 30 mM
ST2/IL33 binding [3] = target: T1, ST2/IL33 binding; settings: two concentrations, 1 and 10 mM; Figure 9A

## NCc1cccnc1 [AMP, 3-(aminomethyl)pyridine]
ST2/IL33 binding [1]
  IC50: > 30 mM
ST2/IL33 binding [2]
  inhibition of ST2/IL33 binding (in words): no inhibition activity

## N=C(N)c1ccccc1 [BZA, benzamidine]
ST2/IL33 binding [2]
  IC50: 8.75 mM

## O=C(O)c1ccc(F)cc1O [Compound 2]
ST2/IL33 binding [3]
  inhibition in initial screening of SA analogs: exhibited inhibition

## O=C(O)c1cc(F)ccc1O [Compound 3]
ST2/IL33 binding [3]
  inhibition in initial screening of SA analogs: exhibited inhibition

## O=C(O)c1ccc(Br)cc1O [Compound 4]
ST2/IL33 binding [3]
  inhibition in initial screening of SA analogs: exhibited inhibition

## O=C(O)c1cc(Br)ccc1O [Compound 5]
ST2/IL33 binding [3]
  inhibition in initial screening of SA analogs: exhibited inhibition

## O=C(c1ccccc1)C(F)(F)F [Compound 6]
ST2/IL33 binding [3]
  inhibition in initial screening of SA analogs: abolished the activities

## COc1ccccc1C(=O)C(F)(F)F [Compound 7]
ST2/IL33 binding [3]
  inhibition in initial screening of SA analogs: abolished the activities

## O=C(O)c1cccnc1 [NA, nicotinic acid]
ST2/IL33 binding [1]; Fc donor beads vs anti-Histag donor beads
  decrease of the IC50 value with Fc donor beads vs anti-Histag donor beads: 2.8 fold
ST2/IL33 binding [2]
  IC50: 5.89 mM

## NC(=O)c1cccnc1 [NAM, nicotinamide]
ST2/IL33 binding [1]
  IC50: > 30 mM
ST2/IL33 binding [2]
  inhibition of ST2/IL33 binding (in words): some inhibitory activity only at 30 mM

## O=C(O)c1ccccc1O [SA, salicylic acid]
ST2/IL33 binding [2]
  IC50: 2.47 mM
